## AlphaSeq binding of Ab-95 light chain variants to a spike HR2 peptide

From the AlphaSeq antibody data of Engelhart et al. 2022 (doi:10.1038/s41597-022-01779-4), copy in the FLAb collection.

Binding partner: SARS-CoV-2 spike HR2 peptide, sequence PDVDLGDISGINAS.

Each scFv is VH, a 15-residue (Gly4Ser)3 linker, VL, as in the parent Ab-95, and differs from it in the CDRs of the light chain only.
VH: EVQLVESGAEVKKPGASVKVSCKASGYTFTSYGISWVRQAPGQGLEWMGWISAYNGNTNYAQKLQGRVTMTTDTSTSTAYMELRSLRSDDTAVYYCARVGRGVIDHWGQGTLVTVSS
VL: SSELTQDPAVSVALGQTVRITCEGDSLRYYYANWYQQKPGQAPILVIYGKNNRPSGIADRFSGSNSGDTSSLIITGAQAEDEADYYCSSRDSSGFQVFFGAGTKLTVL

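The library (AAYL52) carries one to three amino acid substitutions per variant, with no insertions or deletions. AlphaSeq pools MATa yeast showing the antibodies with MATalpha yeast showing the peptide. After mating in shaken culture at 30 °C for 16 h, diploids were selected and their barcode pairs sequenced. Each replicate has its own calibration line, from reference interactions of the BCL2 family. Mating was done three times.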

Changes read parent residue, position, new residue, counted from the first residue of the VL shown. The read-out is the apparent dissociation constant on a log10 scale (nM): the lower, the stronger. The mean shown is taken over the replicates in which the pair was detected. Where no diploid with the target was found in that replicate, the entry reads "n.d.": below detection, most likely a poor binder, though not proof of it.

| changes | log10 Kd, replicates | log10 Kd (nM), mean | control signals |
|---|---|---|---|
| G24V/N33R/F95G | 5.29 n.d. 5.00 | 5.14 | 3 of 9 (4.32) |
| G49S/S55Q/S93F | 3.12 4.02 3.96 | 3.70 | 3 of 9 (4.34) |
| D25E/Y29W/S55E | 2.10 2.07 1.51 | 1.89 | 5 of 9 (3.99) |
| N51V/R90L/G94S | 5.41 3.48 n.d. | 4.44 | 4 of 9 (4.20) |
| E23R/Y30I/F95A | 2.70 2.69 3.65 | 3.01 | 4 of 9 (4.41) |
| N52L/S89K/V97I | n.d. n.d. n.d. | n.d. | 1 of 9 (3.84) |
| S26F/P54M/S55H | 3.52 4.18 n.d. | 3.85 | 1 of 9 (3.01) |
| Y31M/S93W/F98V | 2.41 2.30 2.39 | 2.37 | 1 of 9 (3.71) |
| A32F/S55E/R90C | n.d. n.d. n.d. | n.d. | 2 of 9 (3.48) |
| G24W/L27F | 3.09 2.63 2.32 | 2.68 | 3 of 9 (3.68) |
| A32E/G49T/Q96T | 3.56 n.d. n.d. | 3.56 | 1 of 9 (3.93) |
| Y30D/A32D | 4.55 4.38 3.46 | 4.13 | 3 of 9 (3.86) |
| A32H/F98C | n.d. 4.81 n.d. | 4.81 | 0 of 9 |
| Y31H/D91C/S92Q | 2.22 2.20 1.46 | 1.96 | 3 of 9 (3.30) |
| Y30A/S92K | 1.23 1.19 0.81 | 1.08 | 3 of 9 (3.58) |
| S26K/S55C/G94F | n.d. n.d. n.d. | n.d. | 3 of 9 (4.32) |
| R28H/S92N/G94Y | 4.44 n.d. n.d. | 4.44 | 2 of 9 (3.40) |
| E23I/G49V/R90A | n.d. n.d. n.d. | n.d. | 1 of 9 (2.18) |
| Y31E/S89Y/F98V | 1.60 1.72 1.50 | 1.60 | 5 of 9 (3.97) |
| L27A/G49M/S88M | n.d. n.d. n.d. | n.d. | 1 of 9 (3.34) |
| S26L/F95S/Q96I | n.d. 4.06 4.35 | 4.21 | 6 of 9 (4.03) |
| D25W/S93M | 4.50 n.d. n.d. | 4.50 | 0 of 9 |
| A32Q/N33C/N52L | 2.40 2.95 1.76 | 2.37 | 4 of 9 (3.95) |
| K50W/S89Y/Q96W | 3.31 3.35 1.94 | 2.87 | 5 of 9 (3.99) |
| E23C/S55D | 1.88 1.74 1.29 | 1.64 | 3 of 9 (3.46) |
| Y29C | 2.52 2.00 1.78 | 2.10 | 2 of 9 (3.72) |
| R28Y/N52E/V97H | 2.40 2.04 1.91 | 2.12 | 6 of 9 (4.37) |
| Y30Q/N33Y/S55C | n.d. 3.13 n.d. | 3.13 | 1 of 9 (3.65) |
| R28Q/N52A/S89A | 2.22 1.70 1.71 | 1.88 | 2 of 9 (3.36) |
| Y30W/S89W/V97W | 1.71 2.16 2.11 | 1.99 | 2 of 9 (3.92) |
| A32S/D91I/Q96N | 4.23 n.d. 3.93 | 4.08 | 4 of 9 (4.46) |
| G24K/R53D/S89M | n.d. n.d. n.d. | n.d. | 3 of 9 (4.44) |
| R53Y/S88L/S92D | n.d. n.d. n.d. | n.d. | 1 of 9 (2.69) |

Repeated from above, the 5 best binders with a signal in all replicates:

| changes | log10 Kd, replicates | log10 Kd (nM), mean | control signals |
|---|---|---|---|
| Y30A/S92K | 1.23 1.19 0.81 | 1.08 | 3 of 9 (3.58) |
| Y31E/S89Y/F98V | 1.60 1.72 1.50 | 1.60 | 5 of 9 (3.97) |
| E23C/S55D | 1.88 1.74 1.29 | 1.64 | 3 of 9 (3.46) |
| R28Q/N52A/S89A | 2.22 1.70 1.71 | 1.88 | 2 of 9 (3.36) |
| D25E/Y29W/S55E | 2.10 2.07 1.51 | 1.89 | 5 of 9 (3.99) |

Background: pairings of library AAYL52 with three empty control strains gave a value in 28% of cases (median 3.91, 5th percentile 2.90). Values in that range, when seen in few replicates, are hard to tell from nonspecific mating. Also given: how often the same scFv was detected with the empty control strains, with their mean in brackets.